{"sequences": {"note": "The chains behind the UniProt entries cited, without tags or fusion partners.", "UniProt P38398, whole entry": "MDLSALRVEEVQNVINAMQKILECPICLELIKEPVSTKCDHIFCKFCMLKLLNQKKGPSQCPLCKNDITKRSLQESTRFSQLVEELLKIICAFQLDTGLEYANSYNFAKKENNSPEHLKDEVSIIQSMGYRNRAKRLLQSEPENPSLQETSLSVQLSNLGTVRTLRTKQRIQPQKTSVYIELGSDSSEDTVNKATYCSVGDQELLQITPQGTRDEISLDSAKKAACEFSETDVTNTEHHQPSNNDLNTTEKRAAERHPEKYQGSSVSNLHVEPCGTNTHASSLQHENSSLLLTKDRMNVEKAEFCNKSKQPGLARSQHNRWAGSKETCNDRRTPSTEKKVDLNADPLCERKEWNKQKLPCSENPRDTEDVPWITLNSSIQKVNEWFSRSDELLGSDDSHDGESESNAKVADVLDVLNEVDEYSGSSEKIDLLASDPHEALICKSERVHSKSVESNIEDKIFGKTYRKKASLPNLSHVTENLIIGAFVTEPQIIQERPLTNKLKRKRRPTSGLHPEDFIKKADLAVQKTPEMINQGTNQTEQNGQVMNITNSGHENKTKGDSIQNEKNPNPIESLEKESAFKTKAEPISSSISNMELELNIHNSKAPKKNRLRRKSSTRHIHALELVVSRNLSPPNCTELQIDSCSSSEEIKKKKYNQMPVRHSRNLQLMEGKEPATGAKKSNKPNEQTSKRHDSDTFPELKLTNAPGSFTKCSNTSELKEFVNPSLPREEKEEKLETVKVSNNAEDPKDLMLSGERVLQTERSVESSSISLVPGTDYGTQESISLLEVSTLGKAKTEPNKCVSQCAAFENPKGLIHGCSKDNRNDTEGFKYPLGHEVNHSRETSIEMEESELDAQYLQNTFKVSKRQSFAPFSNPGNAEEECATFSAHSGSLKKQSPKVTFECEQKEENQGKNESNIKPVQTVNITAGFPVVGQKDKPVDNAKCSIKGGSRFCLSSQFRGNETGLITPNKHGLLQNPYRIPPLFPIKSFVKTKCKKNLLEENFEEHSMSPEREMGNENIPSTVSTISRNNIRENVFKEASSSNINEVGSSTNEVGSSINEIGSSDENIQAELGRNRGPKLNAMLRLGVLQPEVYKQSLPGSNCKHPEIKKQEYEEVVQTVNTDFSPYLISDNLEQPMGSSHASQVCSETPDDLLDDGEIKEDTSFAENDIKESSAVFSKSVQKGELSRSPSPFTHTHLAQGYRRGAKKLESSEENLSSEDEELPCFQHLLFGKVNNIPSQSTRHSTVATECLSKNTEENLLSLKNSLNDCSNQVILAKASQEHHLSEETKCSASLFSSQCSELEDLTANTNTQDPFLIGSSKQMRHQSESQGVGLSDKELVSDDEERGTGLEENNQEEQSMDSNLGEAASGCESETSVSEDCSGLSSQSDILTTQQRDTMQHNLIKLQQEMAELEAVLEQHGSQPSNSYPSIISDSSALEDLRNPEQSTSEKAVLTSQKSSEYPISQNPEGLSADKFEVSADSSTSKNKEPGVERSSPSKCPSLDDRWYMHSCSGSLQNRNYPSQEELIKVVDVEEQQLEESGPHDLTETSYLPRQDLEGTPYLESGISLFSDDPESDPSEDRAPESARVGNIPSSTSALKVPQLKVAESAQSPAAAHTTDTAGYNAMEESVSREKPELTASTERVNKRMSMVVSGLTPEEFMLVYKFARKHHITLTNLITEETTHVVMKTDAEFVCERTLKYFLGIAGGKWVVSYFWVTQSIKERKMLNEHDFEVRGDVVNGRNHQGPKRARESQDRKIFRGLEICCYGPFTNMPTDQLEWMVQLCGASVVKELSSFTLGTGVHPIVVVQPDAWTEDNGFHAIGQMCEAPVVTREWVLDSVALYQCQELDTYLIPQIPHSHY"}, "source": "PubChem BioAssay AID875", "about": "(National Center for Advancing Translational Sciences (NCATS), 2007)", "note": "Only a part is listed here, and it is no random draw. Some of these compounds have results that are not shown, active ones among them. Active and inactive are the calls of the source. Calls come from the whole dose curve; as a rule, active = well fitted inhibition curve with a large enough effect; inconclusive = small, poorly fitted or top-dose-only effect; inactive = no such curve, though single readings can be large or run the other way.", "data": [{"target": "Breast cancer type 1 susceptibility protein (Homo sapiens) (UniProt P38398)", "experiment": "qHTS Assay for Inhibitors of BRCT-Phosphoprotein Interaction (Green Fluorophore);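 note: plate controls were peptide without protein for full effect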", "conditions": "BRCA1 BRCT-phosphopeptide binding, green fluorescence polarization; at 15.4 µM (top of the series) unless noted", "procedure": "NIH Molecular Libraries Screening Centers Network [MLSCN]\nNIH Chemical Genomics Center [NCGC]\nPI Name: Natarajan, Amarnath; University of Texas\nA complex of BRCT (C-terminal portion of BRCA1, MW ~35 kDa, His-tagged) and fluorescently labeled pBACH1 phosphorylated 10 aa peptide fragment of BACH1, a helicase implicated in DNA repair, is incubated with library members. Inhibitors of BRCT-pBACH1 binding are detected by a decrease in the fluorescence polarization (FP) of the fluorophore. In order to minimize the effect of fluorescence artifacts and to increase the overall robustness of the screen, the compound library members were incubated in separate reactions with fluorescein labeled probe-protein complexes. Protein and labeled probes were supplied by Dr. Amarnath Natarajan, Department of Pharmacology and Toxicology, University of Texas Medical Branch Galveston, TX.\nAssay Buffer: 16mM Na2HPO4, 4 mM NaH2PO4, 150 mM NaCl, 1 mM EDTA, 1 mM DTT, 0.02% NaN3, and 0.01% Tween 20 at pH 7.3.\n100 nM labeled decapeptide/250 nM protein in columns 1, 2, 5 - 48. Titration of unlabeled decapeptide control (from 10 mM, then 1:2 dilution in duplicate) pin-transferred to column 2, rows 1 to 16. Column 1 is neutral.\nThree uL of reagents were dispensed to 1536-well Greiner black solid-bottom plates. Compounds and controls (23 nL) were transferred\nvia Kalypsys PinTool. The plates were incubated for 12 min at room temperature, and then read on ViewLux (Perkin-Elmer) High throughput CCD imager using FITC for the fluorescein-labeled decapeptide probe polarization filter sets. During dispense, reagent bottles were kept submerged into 4 deg C water bath and all liquid lines were covered with aluminum foil to minimize probe and protein degradation. All screening operations were performed on a Kalypsys robotic system (Kalypsys, Inc., San Diego, CA) containing one RX-130 and two RX-90 anthropomorphic robotic arms. The timing and order of assay plates passing through the screening system were adjusted such that each compound library plate was assayed against the fluorescein- and rhodamine-labeled assay systems at immediately adjacent time points.", "values": [{"compound": "C=C(C)C#C[C@@](O)(C(=O)OC1CCN(C)CC1)c1ccccc1", "activity change, negative = inhibition": "inactive: -0.0105%"}, {"compound": "CN1CCC[C@H](OC(=O)[C@](O)(c2ccccc2)C2CCCC2)C1", "activity change, negative = inhibition": "inactive: -0.0772%"}, {"compound": "CN1CC[C@H](OC(=O)[C@](O)(c2ccccc2)C2CCCC2)C1", "activity change, negative = inhibition": "inactive: -0.276%"}, {"compound": "O=C(OC1CN2CCC1CC2)C(CO)(c1ccccc1)c1ccccc1", "note": "(stereo not given)", "activity change, negative = inhibition": "inactive: 1.61% [at 76.9 µM]"}, {"compound": "CN(C)c1cccc(C(=O)NCC2(N(C)C)CCCCC2)c1", "activity change, negative = inhibition": "inactive: -1.37% [at 76.9 µM]"}]}]}
